Only a part is listed here, and it is no random draw. Some structures show a salt or complex split into parts, the way the source records it. Activity calls are given as the source filed them. The call rests on the fitted dose curve; in most records, active means well fitted inhibition curve with a large enough effect; inconclusive means small, poorly fitted or top-dose-only effect, or effect the other way; inactive means flat fitted curve, though single readings scatter.
Each compound was assayed against Protein phosphatase EYA2 (Homo sapiens) (UniProt O00167) (assay: qHTS Assay for Inhibitors of the Phosphatase Activity of Eya2). Settings: recombinant Eya2, OMFP fluorescence dephosphorylation (OMFP is methylfluorescein phosphate); at 76.9 µM (top of the series).
Description: The Eya family of proteins are essential co-activators of the Six1 transcription factor. Six1 is a developmental gene that is abnormally re-expressed in a large percentage of breast cancers. This over-expression plays a causal role in the initiation and metastatic development of breast cancers. The Eya family of proteins was also found to contain a unique HAD phosphatase domain with protein tyrosine phosphatase activity which can potentially play a role in Six1-mediated breast tumorigenesis. […] We have developed and optimized a 1536 well fluorescence-based HTS assay targeting the phosphatase activity of Eya2. Inhibitors found against Eya2 could serve as potential therapeutic tools to inhibit Six1-mediated breast tumorigenesis and to increase the efficiency of radiation and certain chemo therapy. These inhibitors could also be used as chemical probes to study the function of Eya2's phosphatase activity and its role in Six1-mediated breast tumorigenesis.
The Eya2 enzyme was kindly provided by the laboratory of Dr. Rui Zhao. The 3-O-methyl-fluorescein phosphate (OMFP) substrate and all buffer reagents were purchased from Sigma Aldrich. qHTS Assay Setup: 1. Buffer- 50 mM HEPES pH 7.5, 50 mM NaCl, 5 uM MgCl2, 0.05% BSA, 1 mM DTT. 2. OMFP Stock- 10 mM solution prepared in 100% DMSO and stored in single use aliquots at -20C. Assay Procedure- 1. Dispense 1.5 ul per well of Eya2 at 0.2 uM in black medium binding 1536 well Greiner plate 2. Transfer 23 nl of compound and control compound (EGTA) to plate 3. Incubate at ambient for 10 minutes 4. Dispense 1.5 ul per well of OMFP at 50 uM 5. Incubate at ambient for 10 minutes 6. Read on ViewLux using Excitation = 485 nm, Emission = 525 nm
On the % scale 0 is the no-effect control and ±100 the full control effect.

Chains of the proteins cited; added tags and fusions are not shown.
UniProt O00167, whole entry: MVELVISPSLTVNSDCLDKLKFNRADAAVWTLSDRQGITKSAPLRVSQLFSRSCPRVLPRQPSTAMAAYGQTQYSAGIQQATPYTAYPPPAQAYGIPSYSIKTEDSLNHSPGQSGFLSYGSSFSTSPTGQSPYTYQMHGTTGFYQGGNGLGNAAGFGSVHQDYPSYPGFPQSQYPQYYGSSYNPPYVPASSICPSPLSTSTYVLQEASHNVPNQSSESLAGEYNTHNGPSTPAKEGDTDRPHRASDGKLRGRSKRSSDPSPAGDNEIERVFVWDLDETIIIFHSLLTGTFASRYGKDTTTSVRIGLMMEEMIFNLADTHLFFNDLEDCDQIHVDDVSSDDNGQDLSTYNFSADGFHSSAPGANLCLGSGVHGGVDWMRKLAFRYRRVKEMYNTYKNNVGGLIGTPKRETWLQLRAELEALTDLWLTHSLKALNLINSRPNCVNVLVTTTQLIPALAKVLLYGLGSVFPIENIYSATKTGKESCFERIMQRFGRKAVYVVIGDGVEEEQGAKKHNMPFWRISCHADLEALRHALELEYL

Row | SMILES | activity, negative = inhibition
1 | O=C(NCC1(N2CCCCC2)CCCCC1)c1ccco1 | inactive: 14.8%
2 | CN(C)c1ccc(C(=O)NCC2(N3CCCCC3)CCCCC2)cc1 | inactive: -29.6%
3 | CCN1CCC(Nc2cccc(F)c2)CC1 | inactive: -5.59%
4 | Cc1ccc(C(=O)NCC2(N3CCCCC3)CCCCC2)o1 | inactive: 6.06%
5 | Fc1ccccc1NC1CCN(Cc2ccccc2)CC1 | inactive: -1.09%
6 | COc1cc(OC)cc(C(=O)NCC2(N3CCCCC3)CCCCC2)c1 | inactive: -7.7%
7 | CN1CCC(Nc2ccc(Cl)cc2)CC1 | inactive: -1.86%
8 | CCCOc1ccc(C)cc1CN(CCCl)CCCl | inactive: -13.1%
9 | COc1cccc(C(=O)N(c2cc(C)cc(C)c2)C2CCN(C(=O)OC(C)(C)C)CC2)c1 | inactive: -21.3%
10 | COc1cc(OC)cc(C(=O)NCC2(N3CCOCC3)CCCCC2)c1 | inactive: 6.37%
11 | CCC(CO)(C(=O)OC1CN2CCC1CC2)c1ccccc1 (centres undefined) | inactive: 6.61%
12 | CC(C)(C)OC(=O)N1CCC(Nc2ccccc2)CC1 | inactive: 1.7%
13 | O=C(O)C1(Nc2ccccc2)CCN(Cc2ccccc2)CC1 | inactive: 22.6%
14 | CCCOc1ccc(C(=O)NCC2(N(C)C)CCCCC2)cc1 | inactive: 5.34%
15 | CCOc1ncccc1C(=O)NCC1(N2CCOCC2)CCCCC1 | inactive: -0.872%
16 | CN1CCC(Nc2ccc(F)c(Cl)c2)CC1 | inactive: -3.9%
17 | O=C(OC1CN2CCC1CC2)C1c2ccccc2C=Cc2ccccc21 (centres undefined) | inactive: 2.97%
18 | CCc1cc(C(=O)NCC2(N3CCCCC3)CCCCC2)sc1C | inactive: -5.9%
19 | O=C(O)c1cccc(Nc2c([N+](=O)[O-])cc([N+](=O)[O-])cc2[N+](=O)[O-])c1 | inactive: -26.2%
20 | CCOC(=O)N1CCC(Nc2ccc(C)cc2)CC1 | inactive: -7.2%
21 | N/C(=N\O)c1c(N)no[n+]1[O-] | inactive: 2.62%
22 | COc1ccc(C(=O)NCC2(N3CCOCC3)CCCCC2)cc1OC | inactive: 8.32%
23 | COc1cc(C(=O)NCC2(N3CCOCC3)CCCCC2)cc(OC)c1C | inactive: 1.71%
24 | O=C(NCC1(N2CCOCC2)CCCCC1)c1cc(Br)ccc1Cl | inactive: -21.6%
25 | CN(C)C1(CNC(=O)c2cccc(C#N)c2)CCCCC1 | inactive: 3.9%

Row | SMILES | activity, negative = inhibition
26 | c1ccc(CN2CCC(Nc3ccccc3)CC2)cc1 | inactive: 18.9%
27 | CCCN1CCC(Nc2cc(OC)cc(OC)c2)CC1 | inactive: -4.33%
28 | CCOC(=O)C(CC)C1=NC(C)(C)Cc2ccccc21.O=[N+]([O-])c1cc([N+](=O)[O-])c(O)c([N+](=O)[O-])c1 (centres undefined) | inactive: -18.4%
29 | N#Cc1ccc(C(=O)NCC2(N3CCCCC3)CCCCC2)cc1 | inactive: -4.97%
30 | CC(C)(C)OC(=O)N1CCC(N(C(=O)c2ccccc2)c2ccc(Cl)cc2)CC1 | inactive: -5.5%
31 | O=C(NCC1(N2CCOCC2)CCCCC1)c1cc(=O)[nH]c2ccccc12 | inactive: 3.21%
32 | COc1cc(C(=O)NCC2(N3CCCCC3)CCCCC2)ccc1OC(F)F | inactive: 7.25%
33 | COc1ccc(NC2CCN(C(=O)OC(C)(C)C)CC2)cc1 | inactive: 9.83%
34 | CC(C)c1ccc(C(=O)NCC2(N3CCOCC3)CCCCC2)cc1 | inactive: 13.6%
35 | CN1CCN(CCOC(=O)C(O)(c2ccccc2)c2ccccc2)CC1 | inactive: 3.75%
36 | O=[N+]([O-])c1cc([N+](=O)[O-])c(NCC2CCS(=O)(=O)C2)c([N+](=O)[O-])c1 (centres undefined) | inactive: 6.53%
37 | O=C(NCC1(N2CCCCC2)CCCCC1)c1cccc(C(F)(F)F)c1 | inactive: 1.18%
38 | CCN1CCC(Nc2ccc(Cl)cc2)CC1 | inactive: -3.84%
39 | N#CC1(Nc2ccccc2)CCN(CCc2ccccc2)CC1 | inactive: -1.98%
40 | CSc1ccc(C(=O)NCC2(N3CCOCC3)CCCCC2)cc1 | inactive: 17.6%
41 | O=C(NCC1(N2CCCCC2)CCCCC1)c1cccc([N+](=O)[O-])c1 | inactive: 1.33%
42 | O=C(NCC1(N2CCCCC2)CCCCC1)c1ccc(OC(F)F)cc1 | inactive: 0.566%
43 | CCCOc1ccc(C(=O)NCC2(N(C)C)CCCCC2)cc1OC | inactive: -1.21%
44 | O=C(OC1CN2CCC1CC2)c1ccc([N+](=O)[O-])cc1 (centres undefined) | inactive: -6.92%
45 | O=C(NCC1(N2CCCCC2)CCCCC1)c1cncc(Br)c1 | inactive: -5.1%
46 | COc1ccc2c(c1O)-c1c(O)c(OC)cc3c1[C@H](C2)[N+](C)(C)CC3.O=[N+]([O-])c1cc([N+](=O)[O-])c([O-])c([N+](=O)[O-])c1[O-] | inactive: 2.33%
47 | COc1cc(OC)c(C(=O)NCC2(N(C)C)CCCCC2)cc1OC | inactive: 16%
48 | O=C(NCC1(N2CCOCC2)CCCCC1)c1cc(F)c(F)cc1Cl | inactive: -19.2%
49 | CC(C)c1ccc(NC2CCN(C(=O)OC(C)(C)C)CC2)cc1 | inactive: -13.8%
50 | COc1ccc(CN(CCCl)CCCl)cc1Cl | inactive: 2.44%

Row | SMILES | activity, negative = inhibition
51 | CN(C)c1cccc(C(=O)NCC2(N3CCCCC3)CCCCC2)c1 | inactive: -1.52%
52 | O=[N+]([O-])c1cc([N+](=O)[O-])c(OC2CCCCC2O)c([N+](=O)[O-])c1 (centres undefined) | inactive: 11.1%
53 | O=C(OC1CN2CCC1CC2)C1c2ccccc2Oc2ccccc21 (centres undefined) | inactive: -20.5%
54 | N#CC1(Nc2ccccc2)CCN(Cc2ccccc2)CC1 | inactive: 0.386%
55 | O=C(NCC1(N2CCCCC2)CCCCC1)c1ccc(Cl)s1 | inactive: 8.52%
56 | COc1ccc(Cl)cc1C(=O)NCC1(N2CCOCC2)CCCCC1 | inactive: -8.9%
57 | CCOC(=O)N1CCC(Nc2ccc(OC)cc2)CC1 | inactive: 7.99%
58 | O=C(NCC1(N2CCCCC2)CCCCC1)c1ccc(Cl)nc1 | inactive: -29.5%
59 | Cc1cc(C)cc(N(C(=O)c2ccccc2)C2CCN(C(=O)OC(C)(C)C)CC2)c1 | inactive: -11.6%
60 | O=C(NCC1(N2CCOCC2)CCCCC1)c1cc2ccccc2o1 | inactive: -8.92%
61 | CSc1ccccc1C(=O)NCC1(N2CCCCC2)CCCCC1 | inactive: 14.7%
62 | COc1ccc(C(=O)NCC2(N3CCCCC3)CCCCC2)cc1 | inactive: -3.96%
63 | COc1ccc(C(=O)NCC2(N3CCCCC3)CCCCC2)c(OC)c1OC | inactive: -2.43%
64 | CC(C)(C)OC(=O)N1CCC(N(C(=O)c2ccccc2)c2ccc(F)cc2)CC1 | inactive: -11.6%
65 | O=C(NCC1(N2CCCCC2)CCCCC1)c1ccc(=O)[nH]c1 | inactive: 3.52%
66 | O=C(NCC1(N2CCCCC2)CCCCC1)c1cccs1 | inactive: 32.1%
67 | COc1cc(C(=O)NCC2(N(C)C)CCCCC2)ccc1OC(F)F | inactive: -19.3%
68 | CCOC(=O)N1CCC(Nc2cccc(C)c2)CC1 | inactive: -1.02%
69 | Cc1ccc(OCC(C)C)c(CN(CCCl)CCCl)c1 | inactive: 11%
70 | O=C(NCC1(N2CCCCC2)CCCCC1)c1ccc(F)cc1 | inactive: 4.61%
71 | CCCCOc1ccc(C(=O)NCC2(N3CCOCC3)CCCCC2)cc1 | inactive: 16.8%
72 | CCOC(=O)N1CCC(Nc2ccc(F)cc2)CC1 | inactive: 5.45%
73 | COc1ccc(NC2CCN(CCc3ccccc3)CC2)c(OC)c1 | inactive: -0.729%
74 | CCOc1ccc(C)cc1CN(CCCl)CCCl | inactive: 1.22%

From PubChem BioAssay AID488837 (National Center for Advancing Translational Sciences (NCATS), 2010)
